Active and inactive are the calls of the source. The calls are words filed in the database; no cut-off is given here.
Tests used:
[1] = target: T1, Toll-like receptor 7 (Homo sapiens) (UniProt Q9NYK1); assay: Agonist activity at human TLR7 in human whole blood assessed as induction of IFNalpha production
T1 sequence (whole entry): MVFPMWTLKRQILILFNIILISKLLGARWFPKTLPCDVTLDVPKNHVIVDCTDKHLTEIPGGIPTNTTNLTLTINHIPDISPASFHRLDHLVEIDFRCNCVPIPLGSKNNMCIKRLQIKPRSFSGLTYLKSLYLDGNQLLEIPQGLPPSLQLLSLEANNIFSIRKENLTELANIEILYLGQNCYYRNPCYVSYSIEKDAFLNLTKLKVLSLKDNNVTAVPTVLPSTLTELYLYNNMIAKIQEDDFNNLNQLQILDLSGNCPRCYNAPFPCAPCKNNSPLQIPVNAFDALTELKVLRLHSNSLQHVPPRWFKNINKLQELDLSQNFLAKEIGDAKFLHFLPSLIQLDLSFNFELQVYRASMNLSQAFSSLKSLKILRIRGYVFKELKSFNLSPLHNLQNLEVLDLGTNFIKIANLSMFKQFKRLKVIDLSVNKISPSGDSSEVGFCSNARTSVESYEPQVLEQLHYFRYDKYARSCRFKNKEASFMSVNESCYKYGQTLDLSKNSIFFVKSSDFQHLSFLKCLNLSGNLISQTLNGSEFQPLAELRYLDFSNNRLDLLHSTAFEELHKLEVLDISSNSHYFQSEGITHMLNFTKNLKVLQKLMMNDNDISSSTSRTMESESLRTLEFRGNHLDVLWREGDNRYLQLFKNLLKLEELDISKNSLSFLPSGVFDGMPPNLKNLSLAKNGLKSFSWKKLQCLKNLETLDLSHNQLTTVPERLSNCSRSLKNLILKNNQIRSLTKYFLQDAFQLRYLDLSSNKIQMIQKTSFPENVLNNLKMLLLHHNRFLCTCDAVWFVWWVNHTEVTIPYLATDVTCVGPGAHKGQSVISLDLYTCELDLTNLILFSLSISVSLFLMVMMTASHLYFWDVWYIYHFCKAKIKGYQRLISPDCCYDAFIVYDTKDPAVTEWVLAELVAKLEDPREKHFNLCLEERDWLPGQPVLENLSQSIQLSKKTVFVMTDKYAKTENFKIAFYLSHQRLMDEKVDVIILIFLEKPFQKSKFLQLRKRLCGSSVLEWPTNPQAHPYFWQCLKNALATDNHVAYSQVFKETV

[2] = target: T1, Toll-like receptor 7 (Homo sapiens); assay: Agonist activity at human TLR7 expressed in HEK293 cells co-transfected with MD2 and sAP assessed as induction of NF-kappaB activity by reporter gene assay; assay type: cell-based

## CCCCc1cc2c(o1)c(N)nc1ccccc12
[1]
  Activity: inactive
[2]
  Activity: inactive
